Apparent affinities of Ab-95 variants for a coronavirus HR2 peptide

The measurements come from Engelhart et al. 2022 (doi:10.1038/s41597-022-01779-4) through the FLAb antibody collection.

Target peptide (SARS-CoV-2 spike, HR2 region): PDVDLGDISGINAS

Ab-95 is the parent antibody, in scFv form: VH, then three GGGGS repeats, then VL. The heavy chain is unchanged in all variants.
VH: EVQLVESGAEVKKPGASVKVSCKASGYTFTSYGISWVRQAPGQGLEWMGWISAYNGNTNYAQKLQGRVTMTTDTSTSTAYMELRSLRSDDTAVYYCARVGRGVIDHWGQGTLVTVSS
VL: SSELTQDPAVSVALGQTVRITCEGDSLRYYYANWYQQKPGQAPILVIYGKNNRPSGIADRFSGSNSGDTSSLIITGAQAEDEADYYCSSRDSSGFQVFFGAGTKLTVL

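AAYL52 was designed without a model: most single CDR substitutions and a random sample of double and triple ones. In AlphaSeq, yeast of one mating type display the scFv and yeast of the other type display the target. Mating (16 h, 30 °C) was followed by selection of diploids and sequencing of their barcodes. Read counts were normalised to the haploid input and turned into Kd by a linear fit to BCL2-family pairs of known affinity, for each replicate. Mating was done three times.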

Positions count from residue 1 of the parent VL; N33M puts M in place of N. Every variant below is changed at S93 of the VL (sequential numbering). Values are apparent Kd, the geometric mean of the replicates that gave a signal; lower means stronger binding. "no signal" marks a missing value. The strain was present, yet no cells mated with the target were sequenced in any replicate, which points to weak or no binding. Three control strains display no target. For library AAYL52, 28% of the pairings with them gave a signal, with a median of 8.2 µM and one signal in twenty below 800 nM, so weak values seen in few replicates may be background.

- N33M S93Q F95Q = 20 µM (3 of 3 replicates)
- Y31N A32R S93F = 11 µM (1 of 3 replicates)
- N33C S93R F98I = 1.5 µM (3 of 3 replicates)
- S93P = 150 nM (3 of 3 replicates)
- R53C S89W S93W = 4.9 µM (1 of 3 replicates)
- S88M S93R = 300 nM (3 of 3 replicates)
- Y29R R53L S93L = no signal (0 of 3 replicates)
- G24N Y29I S93E = 17 µM (2 of 3 replicates)
- E23Y G24N S93I = 4.0 µM (2 of 3 replicates)
- G49V S93D V97I = no signal (0 of 3 replicates)
- N33Y R90Q S93C = 6.0 µM (2 of 3 replicates)
- R53D S89P S93A = 35 µM (2 of 3 replicates)
- S88C S93C F98N = 480 nM (3 of 3 replicates)
- D25Y P54T S93I = 6.7 µM (2 of 3 replicates)
- S93T = 96 nM (3 of 3 replicates)
- A32V S93C = 470 nM (3 of 3 replicates)
- Y29P S92K S93V = no signal (0 of 3 replicates)
- N51E R90S S93V = no signal (0 of 3 replicates)
- N52A S93E V97M = no signal (0 of 3 replicates)
- Y31I R90Q S93N = 7.7 µM (2 of 3 replicates)
- K50E S93W G94N = 75 nM (3 of 3 replicates)
- Y30T D91H S93Y = 230 nM (3 of 3 replicates)
- G24A Y29E S93G = 2.7 µM (3 of 3 replicates)
- E23M S92E S93N = 140 nM (3 of 3 replicates)
- R28M S92A S93K = 2.6 µM (3 of 3 replicates)
- S26L R28A S93H = 4.6 µM (2 of 3 replicates)
- R28Y S55D S93P = 300 nM (3 of 3 replicates)
- L27D A32Q S93L = 17 µM (1 of 3 replicates)
- D25M S55D S93L = 560 nM (3 of 3 replicates)
- N33E S93Q Q96V = 6.5 µM (2 of 3 replicates)
- D91F S93M F95K = 270 nM (2 of 3 replicates)
- L27W N33F S93I = 17 µM (2 of 3 replicates)
- S88W S93K F98E = no signal (0 of 3 replicates)
- G24H K50A S93G = 940 nM (3 of 3 replicates)
- Y31R S55A S93I = no signal (0 of 3 replicates)
- G24F G49C S93N = 6.1 µM (1 of 3 replicates)
- R90F S93Q G94S = 450 nM (3 of 3 replicates)
- Y31R R90L S93P = 24 µM (2 of 3 replicates)
- R28W N52D S93G = 35 µM (3 of 3 replicates)
- G49F N52I S93D = 2.4 µM (2 of 3 replicates)
- K50A D91L S93R = no signal (0 of 3 replicates)
- E23H S88D S93N = 460 nM (3 of 3 replicates)
- A32N S55Q S93K = 520 nM (3 of 3 replicates)
- D25F N52A S93I = 2.5 µM (2 of 3 replicates)
- N52M S93T V97L = 1.0 µM (3 of 3 replicates)
- E23R N52W S93F = 26 µM (3 of 3 replicates)
- E23P R90F S93T = no signal (0 of 3 replicates)
- E23F G49C S93N = no signal (0 of 3 replicates)
- G24S S93A Q96E = 1.3 µM (3 of 3 replicates)

A selection of 3 entries from above:

changes	Kd (apparent)	detected
Y30T D91H S93Y	230 nM	3/3
N33M S93Q F95Q	20 µM	3/3
R28M S92A S93K	2.6 µM	3/3

In this assay the parent's reference entry averaged 200 nM; its copy inside this library read 180 nM.